Results taken from PubChem BioAssay AID624125 (The Scripps Research Institute Molecular Screening Center, 2012).
Only a part is listed here, and it is no random draw. Active and inactive are the calls of the source.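 The calls were made as follows: active = inhibition above its plate's cutoff, the mean inhibition of sample wells plus 3 SD (cut at about 27% in these data); inactive = the rest.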

Amino acid sequences for entries named in this document (tags omitted).
UniProt P08173, whole entry, looked up: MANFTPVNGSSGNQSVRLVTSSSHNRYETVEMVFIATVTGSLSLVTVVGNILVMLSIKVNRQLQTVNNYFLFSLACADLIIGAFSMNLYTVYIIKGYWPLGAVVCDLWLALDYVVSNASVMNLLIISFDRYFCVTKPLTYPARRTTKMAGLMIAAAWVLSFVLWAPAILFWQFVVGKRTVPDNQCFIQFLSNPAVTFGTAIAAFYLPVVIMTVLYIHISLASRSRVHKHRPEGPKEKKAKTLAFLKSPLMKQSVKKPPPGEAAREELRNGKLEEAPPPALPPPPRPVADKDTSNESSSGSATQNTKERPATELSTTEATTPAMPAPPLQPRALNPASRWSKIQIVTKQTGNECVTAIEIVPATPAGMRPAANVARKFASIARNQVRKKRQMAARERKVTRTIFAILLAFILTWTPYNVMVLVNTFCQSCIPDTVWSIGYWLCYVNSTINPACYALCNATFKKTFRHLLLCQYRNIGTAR

target: Muscarinic acetylcholine receptor M4 (Homo sapiens) (UniProt P08173); assay: human M4 muscarinic receptor antagonists, primary screen, CHO cells, Fluo-8 calcium fluorescence (AID 624125); conditions: CHO-hM4 cells, ACh EC80, Fluo-8 calcium fluorescence; at 3 µM; stronger effect = higher value;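 also: 0% = acetylcholine EC80 with DMSO and 100% = DMSO without agonist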

SMILES	inhibition
CN(C)C(=O)c1cc([N+](=O)[O-])cc2c1-c1c(cc([N+](=O)[O-])cc1[N+](=O)[O-])C2=O	inactive: 15.8%
O=[N+]([O-])c1ccc2c(c1)nnn2O	inactive: 3.85%
CN(C(=O)Cc1ccc(Cl)c(Cl)c1)[C@H]1CC[C@@]2(CCCO2)C[C@@H]1N1CCCC1	inactive: 0.4%
N#CCCN(C(=O)COC(=O)C(O)(c1ccccc1)c1ccccc1)c1ccc(F)cc1	inactive: -1.42%
CCOP1(=S)c2c(C)nn(CCC#N)c2N=C(c2ccc(F)cc2)N1C (configuration not stated)	inactive: 7.84%
CN(C(=O)Cc1ccccc1)[C@@H]1CC[C@]2(CCCO2)C[C@H]1N1CCCC1	inactive: -3.46%
O=[As](O)(O)c1cccnc1	inactive: 0.08%
CS(=O)(=O)c1ccc(Cl)c(NC(=O)COC(=O)C(O)(c2ccccc2)c2ccccc2)c1	inactive: 1.99%
O=C(OC1CN2CCC1CC2)c1ccc(Cl)cc1 (configuration not stated)	inactive: 18.2%
O=[As](O)(c1cccc(O)c1)c1cccc(O)c1	inactive: 4.44%
Cc1cccc(OCC(=O)OC2CN3CCC2CC3)c1 (configuration not stated)	inactive: 5.19%
CCCOP(=S)(Nc1nc(N)cc(=O)[nH]1)OCCC	inactive: 4.58%
C[C@H]1C(=O)O[C@@H]2CCN3CC=C(COC(=O)[C@](C)(O)[C@]1(C)O)[C@H]23	inactive: -4.13%
Cc1ccc(NCCc2c([N+](=O)[O-])cc([N+](=O)[O-])cc2[N+](=O)[O-])cc1	inactive: -8.45%
Nc1cccc2c([As](=O)(O)O)cccc12	inactive: 1.19%
COc1cc(C2NCCC3(OCCO3)C2(C)C)cc(OC)c1OC (configuration not stated)	inactive: -29.7%
CCOP(=O)(Nc1cccc2ccccc12)OCC	inactive: 4.42%
CN(CCCl)Cc1cc(Cl)c(NC2=NCCN2)c(Cl)c1	inactive: -9.46%
CCOP(=O)(Nc1ccc(C)cn1)OCC	inactive: 6.38%
CCC1=CC2Cc3nc4ccc(Cl)cc4c(N)c3C(C1)C2 (configuration not stated)	inactive: 21.6%
O=P1(Nc2ccccn2)COc2ccccc2OC1	inactive: -4%

SMILES	inhibition
CCOP(=O)(NC(=NC(C)c1ccccc1)NC(C)c1ccccc1)OCC (configuration not stated)	inactive: 5.61%
Clc1n[nH]nc1-c1nn[nH][15n]1	inactive: 2.22%
O=P1(N(CCCl)CCCl)NCCC(C(F)(F)F)O1 (configuration not stated)	inactive: 2.35%
CC(C)(C)C(=O)NC(Sc1ncccn1)C(Cl)(Cl)Cl (configuration not stated)	inactive: 19.8%
COc1ccccc1CNC(=O)COC(=O)C(O)(c1ccccc1)c1ccccc1	inactive: -1.85%
CC1(CBr)Cn2c(nc3ccccc3c2=O)S1 (configuration not stated)	inactive: 8.93%
CN(C(=O)Cc1ccc(Cl)c(Cl)c1)[C@@H]1CCCC[C@H]1N1CCCC1	inactive: 0.24%
CC(C)/C=N\N=C(\N)N[N+](=O)[O-]	inactive: -18.7%
Cc1nn(-c2ccccc2)c2c1P(=O)(N1CCOCC1)N(C)C(c1ccccc1)=N2 (configuration not stated)	inactive: -12.8%
Cc1ccc(C(=O)OC2CN3CCC2CC3)cc1 (configuration not stated)	inactive: -2.83%
CC1CCC(C(C)C)C(OP(=O)(Nc2ccccn2)c2ccccc2)C1 (configuration not stated)	inactive: -19.7%
O=C(/C=C/c1ccccc1)OC1CN2CCC1CC2 (configuration not stated)	inactive: -7.92%
CCCC1OP(=O)(Nc2ccccc2)OCC1CC (configuration not stated)	inactive: -5.62%
O=P1(Nc2ncccn2)COc2ccccc2OC1	inactive: 0.7%
Cc1ccc(S(=O)(=O)N(CCCN)CCCc2c(C)nc(N)[nH]c2=O)cc1	inactive: -3.79%
NS(=O)(=O)c1cccc(NC(=O)COC(=O)C(O)(c2ccccc2)c2ccccc2)c1	inactive: 0.78%
O=P1(Nc2ccc(Br)cn2)COc2ccccc2OC1	inactive: 1.67%
Cc1ccc(OCC(=O)OC2CN3CCC2CC3)cc1 (configuration not stated)	inactive: -11%
O=[As](O)(c1cccs1)c1cccs1	inactive: -2.72%
Nc1cccc([As](=O)(O)c2ccccc2)c1	inactive: 13.9%
CC1CCNP(=O)(N(CCCl)CCCl)O1 (configuration not stated)	inactive: 2.37%

SMILES	inhibition
C/C=C1/CC(C)C(C)(O)C(=O)OCC2CCN3CCC(OC1=O)C23 (configuration not stated)	active: 44.1%
O=C(O)C(O)c1ccc(N(CCCl)CCCl)cc1 (configuration not stated)	inactive: -8.82%
CCOC(=O)Nc1ccc([As](=O)(O)O)c(O)c1	inactive: 3.02%
Cc1cc(SC(NC(=O)c2ccccc2)C(Cl)(Cl)Cl)nc(C(C)C)n1 (configuration not stated)	inactive: 5.7%
COP(=O)(OC)N1CC1c1ccccc1 (configuration not stated)	inactive: 6.84%
CCOC(=O)Nc1cccc([As](=O)(O)O)c1	inactive: 7.27%
O=[N+]([O-])c1ccc(Nc2ccc(Oc3ccc([N+](=O)[O-])cc3[N+](=O)[O-])cc2)c([N+](=O)[O-])c1	inactive: 7.38%
Cc1cc(SC(NC=O)C(Cl)(Cl)Cl)ncn1 (configuration not stated)	inactive: -1.68%
O=P(Nc1ccccn1)(c1cccc2ccccc12)c1cccc2ccccc12	inactive: 1.03%
COP1(=S)c2c(C)nn(CCC#N)c2N=C(c2ccc(F)cc2)N1C (configuration not stated)	inactive: 0.64%
COC(=O)C1(C)COP(=O)(N2CCCC2)OC1 (configuration not stated)	inactive: -6.52%
O=C(COc1ccccc1)OC1CN2CCC1CC2 (configuration not stated)	inactive: 13.8%
O=C(Nc1ccncc1[N+](=O)[O-])c1ccc([N+](=O)[O-])cc1[N+](=O)[O-]	inactive: -3.75%
O=C(O)C(=O)c1ccc(N(CCCl)CCCl)cc1	inactive: -14.1%
CCOC(=O)c1ccc(NC(=O)C(C)(CCl)SC)cc1 (configuration not stated)	inactive: 5.41%
O=C(OC1CN2CCC1CC2)c1cccc([N+](=O)[O-])c1 (configuration not stated)	inactive: -0.52%
CSc1ccc(Nc2c([N+](=O)[O-])cc([N+](=O)[O-])cc2[N+](=O)[O-])cc1	inactive: -16.2%
CCC(C)N(CC(C)C)C(=S)SC(NC(C)=O)C(Cl)(Cl)Cl (configuration not stated)	inactive: 6.08%
Cc1cc(=O)[nH]c(N[N+](=O)[O-])n1	inactive: -7.91%
Cc1c2c(nc3ccccc13)SC(C(Cl)Cl)C2 (configuration not stated)	inactive: -7.79%
COc1ccc2nc(NP(=O)(c3ccccc3)c3ccccc3)sc2c1	inactive: -6.61%

SMILES	inhibition
COc1cc(I)ccc1[As](=O)(O)O	inactive: -4.26%
O=P1(N(CCCl)CCCl)Nc2ccccc2N1	inactive: 0.1%
O=P1(N(CCCl)CCCl)OCCCN1CCCl (configuration not stated)	inactive: 6.36%
COc1ccc(N/C(=N/P(=O)(N2CCOCC2)N2CCOCC2)N2CCOCC2)cc1	inactive: 0.98%
O=[N+]([O-])c1cc(Oc2ccc([N+](=O)[O-])cc2C(F)(F)F)cc([N+](=O)[O-])c1	inactive: -12.4%
O=[As](O)(c1ccc(O)cc1)c1ccccc1O	inactive: -2.02%
C[As](=O)(O)c1cccc(C(=O)O)c1	inactive: -0.3%
O=[N+]([O-])c1ccc(-c2cc([N+](=O)[O-])c(O)c([N+](=O)[O-])c2)cc1	inactive: -6.54%
Cc1ccc2nc3c(c(C)c2c1)CC(C(Cl)Cl)S3 (configuration not stated)	inactive: -23.3%
Cc1ccc(OP(=O)(Nc2ccc([N+](=O)[O-])cn2)Oc2ccc(C)cc2)cc1	inactive: -12%
[N-]=[N+]=NC1CCCCC1NC(=O)c1cc([N+](=O)[O-])cc([N+](=O)[O-])c1 (configuration not stated)	inactive: 3.31%
CC(Cc1ccc(O)cc1)NCC(O)c1cc(O)cc(O)c1 (configuration not stated)	inactive: -3.01%
CC(C)c1ccc(OP(=O)(Nc2ccccn2)Oc2ccccc2F)cc1 (configuration not stated)	inactive: 6.46%
COC(=O)C1(C)COP(=O)(N2CCCCCC2)OC1 (configuration not stated)	inactive: -8.89%
ClCCSc1nnc(-c2cccnc2)o1	inactive: 2.07%
CCN(CC)C(=S)SC(NC=O)C(Cl)(Cl)Cl (configuration not stated)	inactive: 11%
O=C(OC1CN2CCC1CC2)c1cccc2[nH]cnc12 (configuration not stated)	inactive: -6.28%
CC(C)NC(=O)NP(=O)(Oc1ccccc1)Oc1ccccc1	inactive: -4.01%
O=[N+]([O-])c1cc([N+](=O)[O-])c(-c2ccn[nH]2)s1	inactive: -5.88%
